Reference: patent US9174937B2, “Crystal form of glycopyrronium chloride” (dated 2015)

Assays:
[1] = Hygroscopicity in the solid state
[2] = Investigation of the effect of milling (ball milling, XRPD comparison); conditions: Retsch MM 200 grinder, 30 Hz, XRPD overlappable with reference

[(cyclopentylhydroxyphenylacetyl)oxy]-1,1-dimethylpyrrolidinium chloride
hygroscopicity [1]: hygroscopic
degree of crystallinity after milling (XRPD pattern of ground sample vs reference pattern) [2]: substantially unchanged
